{
  "source": "ChEMBL document CHEMBL3399959",
  "about": "“Transporter-mediated tissue targeting of therapeutic molecules in drug discovery” (Bioorg Med Chem Lett, 2015)",
  "key": {"Nucleic Acid [1]": {"test_system": "Nucleic Acid", "test": "Ratio of drug uptake in liver to muscle in rat", "type": "ADME, tissue-based", "conditions": "in vivo"}, "Nucleic Acid [2]": {"test_system": "Nucleic Acid", "test": "Ratio of drug uptake in liver to plasma in rat", "type": "ADME, tissue-based", "conditions": "other tissue"}},
  "data": [
    {"smiles": "CC(C)c1c(C(=O)Nc2ccccc2)c(-c2ccccc2)c(-c2ccc(F)cc2)n1CC[C@@H](O)C[C@@H](O)CC(=O)O", "note": "[ATORVASTATIN]", "values": [
      {"measurement": "Ratio", "setting": "Nucleic Acid [1]", "result": 160},
      {"measurement": "Ratio", "setting": "Nucleic Acid [2]", "result": 50}
    ]}
  ]
}
